Apparent affinities of Ab-91 variants for a coronavirus HR2 peptide

Target peptide (SARS-CoV-2 spike, HR2 region): PDVDLGDISGINAS

Each scFv is VL, the linker GGGGSGGGGSGGGGS, VH, as in the parent Ab-91, and differs from it in the CDRs of the heavy chain only.
VL: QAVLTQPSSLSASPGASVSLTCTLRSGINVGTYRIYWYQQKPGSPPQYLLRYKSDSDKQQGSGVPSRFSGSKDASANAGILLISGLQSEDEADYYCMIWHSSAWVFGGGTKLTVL
VH: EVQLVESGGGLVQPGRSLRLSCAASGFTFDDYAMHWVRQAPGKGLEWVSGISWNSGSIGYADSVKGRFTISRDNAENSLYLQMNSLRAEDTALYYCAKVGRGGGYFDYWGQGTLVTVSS

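AAYL51 was designed without a model: most single CDR substitutions and a random sample of double and triple ones. AlphaSeq pools MATa yeast showing the antibodies with MATalpha yeast showing the peptide. Mating (16 h, 30 °C) was followed by selection of diploids and sequencing of their barcodes. Read counts were normalised to the haploid input and turned into Kd by a linear fit to BCL2-family pairs of known affinity, for each replicate. Each pool was mated in three replicate cultures.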

Sequences are complete VH domains.
The read-out is the apparent dissociation constant on a log10 scale (nM): the lower, the stronger.
Where no diploid with the target was found in that replicate, the entry reads "ND": below detection, most likely a poor binder, though not proof of it.
Empty control strains, which show no peptide, gave a signal in 21% of pairings with library AAYL51; the median was 4.54 and 95% of these signals were weaker than 3.26. No background was subtracted. For each scFv, signals with the empty controls are counted beside the result, with their mean in brackets.

VH | log10 Kd, replicates | signal with controls
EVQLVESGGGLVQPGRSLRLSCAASGFTFDDYAMHWVRQAPGKGLEWVSGISWNSGSIGYYDSVKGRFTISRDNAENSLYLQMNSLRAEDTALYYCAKVFRGGGYFLYWGQGTLVTVSS | 4.70 4.51 ND | 3 of 9 (4.76)
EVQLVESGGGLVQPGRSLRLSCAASGPTFDDYAMHWVRQAPGKGLEWVSGKSWNDGSIGYADSVKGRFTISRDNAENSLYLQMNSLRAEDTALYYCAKVGRGGGYFDYWGQGTLVTVSS | 5.57 ND ND | 0 of 9
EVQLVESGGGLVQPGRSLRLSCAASGFTFDDYACHWVRQAPGKGLEWVSGIMHNSGSIGYADSVKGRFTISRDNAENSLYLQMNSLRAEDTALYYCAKVGRGGGYFDYWGQGTLVTVSS | 4.50 ND ND | 2 of 9 (4.69)
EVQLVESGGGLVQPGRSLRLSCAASGFTFDDYAMHWVRQAPGKGLEWVSGISNNIGSIGYADSVKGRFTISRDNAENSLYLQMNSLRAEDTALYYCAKVGRGGGYFDAWGQGTLVTVSS | ND ND ND | 1 of 9 (3.77)
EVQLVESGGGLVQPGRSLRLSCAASGFTFDDYAMHWVRQAPGKGLEWVSNISWNSGSIGYNDSVKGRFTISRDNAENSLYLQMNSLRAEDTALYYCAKVGRSGGYFDYWGQGTLVTVSS | ND 4.97 ND | 5 of 9 (4.06)
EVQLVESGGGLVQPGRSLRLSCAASKFTFDDYAMHWVRQAPGKGLEWVSGISWNSGSIGYADSVHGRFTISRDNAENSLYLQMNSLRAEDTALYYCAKSGRGGGYFDYWGQGTLVTVSS | 4.73 4.95 ND | 6 of 9 (4.59)
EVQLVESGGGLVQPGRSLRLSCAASGPTFDDYAMHWVRQAPGKGLEWVSGISWNSGSIGYADSVKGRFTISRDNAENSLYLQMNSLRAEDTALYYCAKVGCGGGYFDYWGQGTLVTVSS | ND ND ND | 0 of 9
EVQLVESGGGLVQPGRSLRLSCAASGFTFDDYAMHWVRQAPGKGLEWVSGISWNSGSHGYADSVHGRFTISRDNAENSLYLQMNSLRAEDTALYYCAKVGRGGTYFDYWGQGTLVTVSS | 4.05 ND ND | 1 of 9 (3.29)
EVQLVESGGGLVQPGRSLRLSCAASGFTCDDYAMHWVRQAPGKGLEWVSGISWNSGSQGYADSVKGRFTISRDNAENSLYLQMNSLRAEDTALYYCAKVGRGGGYFDYWGQGTLVTVSS | 3.90 4.24 ND | 3 of 9 (4.20)
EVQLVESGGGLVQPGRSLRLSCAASGFTFDDYADHWVRQAPGKGLEWVSGISWNSGSIGYADSVKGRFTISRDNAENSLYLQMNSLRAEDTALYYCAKVGRGCGYHDYWGQGTLVTVSS | ND ND 4.83 | 1 of 9 (3.91)
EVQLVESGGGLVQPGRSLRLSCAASGFTFDDPAMHWVRQAPGKGLEWVSGISWNRGSIGYADSVKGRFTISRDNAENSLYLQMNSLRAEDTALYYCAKVMRGGGYFDYWGQGTLVTVSS | ND 5.09 5.44 | 3 of 9 (4.67)
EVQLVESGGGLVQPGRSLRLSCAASGFTFDDYAMHWVRQAPGKGLEWVSGISWSSGSIGYADSPKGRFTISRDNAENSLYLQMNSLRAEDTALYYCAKVGRGGGYFVYWGQGTLVTVSS | 5.77 ND 5.19 | 3 of 9 (4.92)
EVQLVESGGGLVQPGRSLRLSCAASGFTFDDYAMHWVRQAPGKGLEWVSTISWNQGSIDYADSVKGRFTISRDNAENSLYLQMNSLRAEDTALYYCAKVGRGGGYFDYWGQGTLVTVSS | 4.23 ND 4.33 | 6 of 9 (4.49)
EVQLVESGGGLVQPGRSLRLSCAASGFTFDDYAMHWVRQAPGKGLEWVSGIDWNSGSIMYADSVMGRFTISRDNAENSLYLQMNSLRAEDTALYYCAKVGRGGGYFDYWGQGTLVTVSS | ND ND ND | 0 of 9

In this assay the parent's reference entry averaged 1.86; its copy inside this library read 0.88.

The measurements come from Engelhart et al. 2022 (doi:10.1038/s41597-022-01779-4) through the FLAb antibody collection.